Assay results taken from patent publication US20260042764A1, “COMPOSITIONS AND METHODS FOR INHIBITION OF KRAS” (TheRas, Inc., priority 2022, published 2026).

Amino acid sequences for entries named in this document (tags omitted). Residues count along the entry.
UniProt P01116, 1-169 isoform 2 limits assumed: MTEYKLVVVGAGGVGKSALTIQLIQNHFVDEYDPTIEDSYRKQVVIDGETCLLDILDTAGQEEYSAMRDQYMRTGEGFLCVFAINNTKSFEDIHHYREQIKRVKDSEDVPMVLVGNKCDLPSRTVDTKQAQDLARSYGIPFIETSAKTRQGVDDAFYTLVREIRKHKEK
UniProt P01116, 2-169 isoform 2 limits assumed: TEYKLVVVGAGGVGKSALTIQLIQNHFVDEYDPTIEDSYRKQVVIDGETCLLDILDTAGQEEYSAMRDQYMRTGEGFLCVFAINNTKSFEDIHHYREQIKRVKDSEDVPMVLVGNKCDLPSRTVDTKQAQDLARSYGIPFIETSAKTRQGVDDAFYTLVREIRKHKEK

How the values were obtained:
[1] = biological target: Avi-KRAS WT (1-169) GppNHp/RAF1 RBD-3xFLAG (52-151) (Homo sapiens, UniProt P01116); assay: Raf1-KRAS WT-GppNHP disruption HTRF assay (Biological Example 1); conditions: read-out: Raf1-GppNHp-KRAS WT disruption; KRAS WT, GppNHp-loaded; class symbols
[2] = system: AsPC-1 cells (KRAS G12D); assay: 3D Cell viability assay in AsPC-1 cells (Biological Example 6); conditions: read-out: AsPC-1 3D cell viability IC50; AsPC-1 (KRAS G12D) spheroids, 72 hours
Description: (§1) Biological Example 6: 3D Cell viability assay in AsPC-1, SW1900, HPAC, Capan-2, RKN, H358, HCT116, KP-2, H1573, A549, MKN1, and HT1080 cells
(§2) The inhibition of cellular viability as a result of test compound treatment in a spheroid assay was measured using the CellTiter-Glow 3D Cell Viability Assay (Promega).
(§3) On Day 1, 1000 cells per well were seeded in 150 μL of complete growth media supplemented with 10% fetal bovine serum (FBS) and incubated at 37° C., in the presence of 5% CO2 in 96-well ultra-low attachment microplates (Corning) for 48 hours undisturbed to allow spheroids to form.
(§4) Following spheroid formation, cells were treated with compounds diluted in DMSO at 0.25% final DMSO concentration. Compounds were dosed in a 9-point concentration curve with three-fold dilution between concentrations. […]
(§5) Following this incubation period, the kit-provided CTG reagent was allowed to equilibrate for 30 minutes at room temperature, 150 μL of equilibrated CTG reagent was added to each well, and the plate was sealed before shaking at 250 rpm for 10 minutes at room temperature to lyse the cells, 150 μL of lysate per well was transferred to a 96-well plate and luminescence was read on a CLARIOstar plate reader.
(§6) Data was imported into the Prism software package (Graphpad) and EC50 values were calculated using the log (inhibitor) vs, response—variable slope (Four parameters) model.

[3] = system: Capan-2 cells (KRAS G12V); assay: Cell-based pERK HTRF assay in Capan-2 cells (Biological Example 5); conditions: read-out: Capan-2 pERK HTRF IC50; Capan-2 (KRAS G12V) cells
Description: Biological Example 5: Cell-based PERK HTRF assay in AsPC-1, SW1900, HPAC, Capan-2, RKN, H358, HCT116, KP-2, H1573, A549, MKN1, and HT1080 cells
The inhibition of ERK phosphorylation, as measured using the HTRF Advanced Phospho-ERK 1/2 (Thr202/Tyr204) Detection Assay kit (Perkin Elmer), was used to determine the effectiveness of test compounds in disrupting KRAS-driven protein/effector signaling in cells.
On day 1, cells were seeded into 96-well plates at 2.5×10^4 cells/well in 100 μL of complete growth media supplemented with 10% fetal bovine serum (FBS) and incubated at 37° C., in the presence of 5% CO2.
On day 2, cells were treated with compounds diluted in DMSO at 0.25% final DMSO concentration. Compounds were dosed in a 9-point concentration curve with three-fold dilution between concentrations. Cells were incubated in the presence of compound for two hours at 37° C. […]
Following this incubation period, plates were centrifuged at 500×g for one minute and analyzed on a CLARIOstar plate reader. Data was imported into Microsoft Excel and the signal from the 665 nm channel was divided by the signal from the 620 nm channel. % pERK was calculated as: […]
Data was imported to the Prism software package (Graphpad) and EC50 values were calculated using the log (inhibitor) vs, response—variable slopc (Four parameters) model.

[4] = biological target: Avi-KRAS WT (2-169) GTP/RAF1 RBD-3xFLAG (51-131) (Homo sapiens, UniProt P01116); assay: Raf1-KRAS WT-GTP disruption HTRF assay (Biological Example 3); conditions: read-out: Raf1-GTP-KRAS WT disruption, GTP-loaded
Description: Biological Example 3: Disrupting RAS-Effector Binding HTRF Assay
A protein:protein interaction (PPI) Homogeneous Time Resolved Fluorescence (HTRF) assay was used to determine the effectiveness of compounds in disrupting KRAS protein and effector (RAF1) binding.
The HTRF assay used the following reagents and proteins: (i) 50 nM Avi-KRAS G12D (2-169) GTP/RAF1 RBD-3xFLAG (51-131): (ii) 50 nM Avi-KRAS G12C (2-169) GTP/RAF1 RBD-3xFLAG (51-131): (iii) 50 nM Avi-KRAS G12V (2-169) GTP/RAF1 RBD-3xFLAG (51-131); (iv) 50 nM Avi-KRAS WT (2-169) GTP/RAF1 RBD-3xFLAG (51-131); and (v) 75 nM 3xFLAG-RAF1 RBD (51-131)-Avi. The assay buffer included: 50 mM Tris pH 7.5 (Invitrogen, 15567-027), 100 mM NaCl (Sigma, S5150-IL), 5 mM MgCl2 (Sigma, 63069), 0.1% BSA (Sigma, A7030), 0.01% Tween 20 (Sigma, P7949), 10% DMSO (Cell Signaling, 12611). The bead buffer included: 50 mM Tris pH 7.5 (Invitrogen, 15567-027), 0.01% Tween 20 (Sigma, P7949). An assay volume of 20 μL was used in a 384 well plate-low volume format. Compound titration: 30-0.005 μM, 3x dilution series.
The HTRF assay employed the following protocol: […]
Plates were analyzed on an Envision plate reader using the following setting: Excitation 320 nm, Bandwidth 75 nm; Emission 615 nm, Bandwidth 85 nm; Gain 100%; Flashes 100; Lag 60 μs. […] Data was plotted and analyzed using Prism 8. […]

[5] = system: RKN cells (KRAS G12V); assay: 3D Cell viability assay in RKN cells (Biological Example 6); conditions: read-out: RKN 3D cell viability IC50; RKN (KRAS G12V) spheroids, 72 hours
Description: as §1, §2, §3, §4, §5, §6

CCN(c1nc(OC[C@@]23CCCN2C[C@H](F)C3)nc2c(F)c(-c3ccc(F)c4sc(N)c(C#N)c34)c(C(F)(F)F)cc12)[C@H]1CCN(C(=O)OC2COC2)C1
IC50 [1]: < 100 nM
IC50 [2]: < 100 nM
IC50 [3]: < 100 nM
IC50 [4]: 100 to 1000 nM
IC50 [5]: < 100 nM
